The list shows a part of the results, in another mix than the full data. Inconclusive results are not listed. Calls of active or inactive are those of the source. Calls come from the whole dose curve; as a rule, active = well fitted activation curve with a large enough effect; inconclusive = small, poorly fitted or top-dose-only effect; inactive = no such curve, though single readings can be large or run the other way.

This experiment can be described thus: A quantitative high throughput screen for small molecules that induce DNA re-replication in MCF 10a normal breast cells. Note: % of control where 0% means no effect; nearly all actives have a fitted effect of over 50% in size. Conditions: MCF 10A DNA re-replication, Hoechst nuclear intensity, 48 h; at 46.1 µM (top of the series) unless noted.
Consider `Cc1ccc(NC2(C#N)CCN(Cc3ccccc3)CC2)cc1`, for which the activity, positive = re-replication is inactive: 1.15%.
Take `Cc1ccc(C(=O)NCC2(N3CCCCC3)CCCCC2)o1`: the activity, positive = re-replication was inactive: -0.166%.
To `Fc1ccccc1NC1CCN(Cc2ccccc2)CC1` belongs inactive: 23.8%.
In the case of `COc1cc(OC)cc(C(=O)NCC2(N3CCCCC3)CCCCC2)c1`, the activity, positive = re-replication was inactive: -0.408%.
For `CC(=O)N(c1ccccc1)C1CCNCC1`, the activity, positive = re-replication is inactive: -16.4%.
As to `O=C(NCC1(N2CCCCC2)CCCCC1)c1ccco1`, the activity, positive = re-replication is inactive: 17.9%.
For the molecule `CN(C)c1ccc(C(=O)NCC2(N3CCCCC3)CCCCC2)cc1`, the activity, positive = re-replication was inactive: 3.63%.
To `Cc1ccccc1NC1(C#N)CCN(Cc2ccccc2)CC1` belongs inactive: -2.39%.
In the case of `CCCOc1ccc(C(=O)NCC2(N(C)C)CCCCC2)cc1`, the activity, positive = re-replication is inactive: 16.7%.
As for `CC(C)(C)OC(=O)N1CCC(Nc2ccccc2)CC1`, the activity, positive = re-replication is inactive: -1.09%.
Consider `O=C(O)C1(Nc2ccccc2)CCN(Cc2ccccc2)CC1`, for which the activity, positive = re-replication is inactive: -1.01%.
With `CCOc1ncccc1C(=O)NCC1(N2CCOCC2)CCCCC1`, the activity, positive = re-replication was inactive: 6.99%.
For the molecule `CN1CCC(Nc2ccc(F)c(Cl)c2)CC1`, the activity, positive = re-replication was inactive: 6.12%.
Turning to `CN1CCC(Nc2ccc(Cl)cc2)CC1`, the activity, positive = re-replication was inactive: 0.911%.
In the case of `CCC(CO)(C(=O)OC1CN2CCC1CC2)c1ccccc1` (configuration not stated), the activity, positive = re-replication was inactive: 16.7%.
Turning to `COc1cc(OC)cc(C(=O)NCC2(N3CCOCC3)CCCCC2)c1`, the activity, positive = re-replication is inactive: 2.82% [at 9.22 µM].
To `COc1cccc(C(=O)N(c2cc(C)cc(C)c2)C2CCN(C(=O)OC(C)(C)C)CC2)c1` belongs inactive: 8.4%; to `COc1ccc(C(=O)NCC2(N3CCOCC3)CCCCC2)cc1OC`, inactive: -0.395%; to `O=C(NCC1(N2CCOCC2)CCCCC1)c1cc(Br)ccc1Cl`, inactive: -2.12%.
Take `COc1cc(C(=O)NCC2(N3CCOCC3)CCCCC2)cc(OC)c1C`: the activity, positive = re-replication was inactive: 4.35%.
Then `O=C(OC1CN2CCC1CC2)C1c2ccccc2C=Cc2ccccc21` (configuration not stated), with inactive: 8.95%; and `O=C(O)c1cccc(Nc2c([N+](=O)[O-])cc([N+](=O)[O-])cc2[N+](=O)[O-])c1`, with inactive: 8.76%.
With `N/C(=N\O)c1c(N)no[n+]1[O-]`, the activity, positive = re-replication is inactive: -0.333%.
To `CCOC(=O)N1CCC(Nc2ccc(C)cc2)CC1` belongs inactive: -0.205%; to `CCOC(=O)C(CC)C1=NC(C)(C)Cc2ccccc21.O=[N+]([O-])c1cc([N+](=O)[O-])c(O)c([N+](=O)[O-])c1` (configuration not stated), inactive: 4.42%; to `CC(C)(C)OC(=O)N1CCC(N(C(=O)c2ccccc2)c2ccc(Cl)cc2)CC1`, inactive: 23%.
To `N#Cc1ccc(C(=O)NCC2(N3CCCCC3)CCCCC2)cc1` belongs inactive: 5.14%.
